# Measured values published in patent publication US20220395458A1, “PREVENTION OF VISIBLE PARTICLE FORMATION IN AQUEOUS PROTEIN SOLUTIONS” (Hoffmann-La Roche Inc., priority 2019, published 2022).
# Assay: Visible particles in mAb formulations on storage
# Assay type: physicochemical
# Conditions: after 12M storage at 25° C.; particles characterized as FFA and Aluminium
# Method: mAb1 (IgG1. Mw=145.5 kDa, pertuzumab) and mAb2 (IgG1. Mw=148 kDa, trastuzumab) were obtained from F. Hoffmann-La Roche and formulated with 1000 U/mL hyaluronidase in 20 mM HisHCl buffer pH 5.5, 105 mM Trehalose, 100 mM Sucrose, 10 mM Methionine, and 0.04% Polysorbate 20. The corresponding placebo was the same formulation without proteins. Formulations were stored at 5° C., and 25° C., for 24 months. Spiking experiments including respective controls with placebo were performed in triplicates using either inorganic salt solutions (CaCl2 and NaAlO2 in 10+1 dilution) or glass leachable's from stock solutions in 10+1 or 100+1 dilution.
# Precipitation of FFA particle in a protein matrix was further studied in aged mAb1 and mAb2 solutions (22M, 5° C.) by addition of different concentrations of ‘real’ glass leachables. In this experiment, the presence of FFA were a result of PS20 degradation forming over shelf-life of the drug product. Mab1 and mAb2 were formulated in the same matrix but differ in the type of mAb (CDRs). Originating from different drug substance processes and purification processes, the PS20 degradation rates were found different (FIG. 5) as well as the type and concentrations of FFAs as a subsequent result (FIG. 6).
# Products were characterized as free of visible particles before the experiment (stored for 22M at 5° C.). […]
substance,measurement,value
trastuzumab [mAb2],Visible particles on storage,showed visible particles
